In US9387206B2, “Therapeutic approaches for treating Alzheimer's disease” (PHARNEXT, priority 2009, dated 2016):

Tested on: rat primary cortical neurons
Experiment: Neurite outgrowth in beta-amyloid (Aβ25-35) intoxicated rat primary cortical neuron culture
Type: cell-based
Details: Aβ25-35 20 μM, 2 days; drug added 1 hour before

[H]/N=C(/N)N/C(=N/[H])NCCc1ccccc1 [Phenformin]
Prevention of Aβ25-35 intoxication, neurite outgrowth (neurite length): significantly prevented
